{"source": "PubChem BioAssay AID575", "about": "(SRMLSC, 2007)", "note": "Only a part is listed here, and it is no random draw. Activity calls are given as the source filed them.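 Rule for the calls: active = viability at or below 30% in both replicate assays; inconclusive = viability at or below 30% in just one of the two assays; inactive = the rest.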"}
{"experiment": "HUVEC growth inhibition – cell-based, human, primary screen (AID 575);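 note: 100% = median of untreated cell wells with 0.1% DMSO on each plate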", "conditions": "HUVEC proliferation, CellTiter-Glo luminescence, 72 h; at 10 µM; hits give low values", "method_in_brief": "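Material: primary human umbilical vein endothelial cells / Schedule: 72 h exposure, 37 °C, 5% CO2, 30 min RT equilibration / Signal: ATP-based CellTiter-Glo luminescent read / Read-out basis: percent of median DMSO-control luminescence / Control set: 32 DMSO-only cell-control wells (high), 32 MePR drug-control wells (low) per plate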"}
{"molecule": "Fc1ccccc1NC1CCN(Cc2ccccc2)CC1", "viability": "inactive: 103%"}
